Data reported in US20240325398A1, “COMBINATION THERAPIES” (Infinity Pharmaceuticals, Inc., priority 2014, published 2024).

Key:
Experiment in all cases: Combination study, ATPLite 72 h, dose matrix (Synergy Score, CI50)
Settings in all cases: combination with Compound 1
Farage = tested on: Farage
SU-DHL-4-epst = tested on: SU-DHL-4-epst
RPMI-8226 = tested on: RPMI-8226
HBL-1 = tested on: HBL-1
DOHH-2 = tested on: DOHH-2
Jeko-1 = tested on: Jeko-1
NCI-H929 = tested on: NCI-H929
KARPAS-422 = tested on: KARPAS-422

CC(C)C[C@H](NC(=O)[C@H](Cc1ccccc1)NC(=O)c1cnccn1)B(O)O [bortezomib, [(1R)-3-methyl-1-({(2S)-3-phenyl-2-[(pyrazin-2-ylcarbonyl)amino]propanoyl}amino)butyl]boronic acid]
Synergy Score growth inhibition (Farage): A3 (A3=>3) | Synergy Score inhibition (Farage): A1 (A1=0.0001 to <1) | Synergy Score growth inhibition (SU-DHL-4-epst): A3 (A3=>3) | Synergy Score inhibition (SU-DHL-4-epst): A1 (A1=0.0001 to <1) | Synergy Score growth inhibition (RPMI-8226): A1 (A1=0.0001 to <1) | Synergy Score inhibition (RPMI-8226): A1 (A1=0.0001 to <1) | Synergy Score growth inhibition (HBL-1): A2 (A2=1 to <3) | Synergy Score inhibition (HBL-1): A1 (A1=0.0001 to <1) | Synergy Score growth inhibition (DOHH-2): A2 (A2=1 to <3) | Synergy Score inhibition (DOHH-2): A1 (A1=0.0001 to <1) | Synergy Score growth inhibition (Jeko-1): A1 (A1=0.0001 to <1) | Synergy Score inhibition (Jeko-1): A1 (A1=0.0001 to <1) | Synergy Score growth inhibition (NCI-H929): A1 (A1=0.0001 to <1) | Synergy Score inhibition (NCI-H929): A1 (A1=0.0001 to <1) | Synergy Score growth inhibition (KARPAS-422): A2 (A2=1 to <3) | Synergy Score inhibition (KARPAS-422): A1 (A1=0.0001 to <1)
